From publication PMC6159918 (Peptides, 2018)

Columns and labels:
human BRS-3-receptor = target: T1, human BRS-3-receptor (Homo sapiens, UniProt P32247); experiment: p42/44 MAPK phosphorylation; type: cell-based; details: NCI-H510
T1 sequence (P32247 1-399): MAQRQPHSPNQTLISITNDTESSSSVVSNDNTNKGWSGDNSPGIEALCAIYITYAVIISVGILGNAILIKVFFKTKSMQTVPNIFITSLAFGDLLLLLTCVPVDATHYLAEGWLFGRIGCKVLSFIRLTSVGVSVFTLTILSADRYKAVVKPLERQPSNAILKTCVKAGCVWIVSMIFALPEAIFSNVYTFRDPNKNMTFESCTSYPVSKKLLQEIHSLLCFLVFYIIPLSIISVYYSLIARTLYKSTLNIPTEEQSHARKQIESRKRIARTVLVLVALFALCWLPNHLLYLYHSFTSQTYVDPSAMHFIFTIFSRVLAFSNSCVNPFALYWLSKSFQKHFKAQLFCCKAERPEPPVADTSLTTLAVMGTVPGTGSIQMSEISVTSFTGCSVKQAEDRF

GRPR = type: cell-based, human; details: GRP 1 μM; Balb-3T3 BRS-3 transfected; control 2487 ± 185

Compound	p42/44 phosphorylation at 10 nM relative to 100 nM MK-5046 (human BRS-3-receptor) [fold]	[3H]IP (DPM) (GRPR)
O[C@@](Cc1nc(CC2(C(F)(F)F)CC2)c[nH]1)(c1ccc(-n2cccn2)cc1)C(F)(F)F [MK-5046, (2S)-1,1,1-trifluoro-2-[4-(1H-pyrazol-1-yl)phenyl]-3-(4-[[1-(trifluoromethyl)cyclopropyl]methyl]-1H-imidazol-2-yl)propan-2-ol]	1.3	–
gastrin-releasing peptide [GRP]	–	2537 ± 769
